Values of other authors as cited in patent publication US20240011094A1, “METHODS FOR DIAGNOSIS AND TREATING POLYCYSTIC OVARY SYNDROME (PCOS)” (INSTITUT NATIONAL DE LA SANTÉ ET DE LA RECHERCHE MÉDICALE, priority 2020, published 2024).

By UniProt entry, the sequences of proteins in these tests, tags left out. Where a name states a change or a piece, a line headed by the entry shows the natural chain unless it says otherwise.
UniProt Q3URK3: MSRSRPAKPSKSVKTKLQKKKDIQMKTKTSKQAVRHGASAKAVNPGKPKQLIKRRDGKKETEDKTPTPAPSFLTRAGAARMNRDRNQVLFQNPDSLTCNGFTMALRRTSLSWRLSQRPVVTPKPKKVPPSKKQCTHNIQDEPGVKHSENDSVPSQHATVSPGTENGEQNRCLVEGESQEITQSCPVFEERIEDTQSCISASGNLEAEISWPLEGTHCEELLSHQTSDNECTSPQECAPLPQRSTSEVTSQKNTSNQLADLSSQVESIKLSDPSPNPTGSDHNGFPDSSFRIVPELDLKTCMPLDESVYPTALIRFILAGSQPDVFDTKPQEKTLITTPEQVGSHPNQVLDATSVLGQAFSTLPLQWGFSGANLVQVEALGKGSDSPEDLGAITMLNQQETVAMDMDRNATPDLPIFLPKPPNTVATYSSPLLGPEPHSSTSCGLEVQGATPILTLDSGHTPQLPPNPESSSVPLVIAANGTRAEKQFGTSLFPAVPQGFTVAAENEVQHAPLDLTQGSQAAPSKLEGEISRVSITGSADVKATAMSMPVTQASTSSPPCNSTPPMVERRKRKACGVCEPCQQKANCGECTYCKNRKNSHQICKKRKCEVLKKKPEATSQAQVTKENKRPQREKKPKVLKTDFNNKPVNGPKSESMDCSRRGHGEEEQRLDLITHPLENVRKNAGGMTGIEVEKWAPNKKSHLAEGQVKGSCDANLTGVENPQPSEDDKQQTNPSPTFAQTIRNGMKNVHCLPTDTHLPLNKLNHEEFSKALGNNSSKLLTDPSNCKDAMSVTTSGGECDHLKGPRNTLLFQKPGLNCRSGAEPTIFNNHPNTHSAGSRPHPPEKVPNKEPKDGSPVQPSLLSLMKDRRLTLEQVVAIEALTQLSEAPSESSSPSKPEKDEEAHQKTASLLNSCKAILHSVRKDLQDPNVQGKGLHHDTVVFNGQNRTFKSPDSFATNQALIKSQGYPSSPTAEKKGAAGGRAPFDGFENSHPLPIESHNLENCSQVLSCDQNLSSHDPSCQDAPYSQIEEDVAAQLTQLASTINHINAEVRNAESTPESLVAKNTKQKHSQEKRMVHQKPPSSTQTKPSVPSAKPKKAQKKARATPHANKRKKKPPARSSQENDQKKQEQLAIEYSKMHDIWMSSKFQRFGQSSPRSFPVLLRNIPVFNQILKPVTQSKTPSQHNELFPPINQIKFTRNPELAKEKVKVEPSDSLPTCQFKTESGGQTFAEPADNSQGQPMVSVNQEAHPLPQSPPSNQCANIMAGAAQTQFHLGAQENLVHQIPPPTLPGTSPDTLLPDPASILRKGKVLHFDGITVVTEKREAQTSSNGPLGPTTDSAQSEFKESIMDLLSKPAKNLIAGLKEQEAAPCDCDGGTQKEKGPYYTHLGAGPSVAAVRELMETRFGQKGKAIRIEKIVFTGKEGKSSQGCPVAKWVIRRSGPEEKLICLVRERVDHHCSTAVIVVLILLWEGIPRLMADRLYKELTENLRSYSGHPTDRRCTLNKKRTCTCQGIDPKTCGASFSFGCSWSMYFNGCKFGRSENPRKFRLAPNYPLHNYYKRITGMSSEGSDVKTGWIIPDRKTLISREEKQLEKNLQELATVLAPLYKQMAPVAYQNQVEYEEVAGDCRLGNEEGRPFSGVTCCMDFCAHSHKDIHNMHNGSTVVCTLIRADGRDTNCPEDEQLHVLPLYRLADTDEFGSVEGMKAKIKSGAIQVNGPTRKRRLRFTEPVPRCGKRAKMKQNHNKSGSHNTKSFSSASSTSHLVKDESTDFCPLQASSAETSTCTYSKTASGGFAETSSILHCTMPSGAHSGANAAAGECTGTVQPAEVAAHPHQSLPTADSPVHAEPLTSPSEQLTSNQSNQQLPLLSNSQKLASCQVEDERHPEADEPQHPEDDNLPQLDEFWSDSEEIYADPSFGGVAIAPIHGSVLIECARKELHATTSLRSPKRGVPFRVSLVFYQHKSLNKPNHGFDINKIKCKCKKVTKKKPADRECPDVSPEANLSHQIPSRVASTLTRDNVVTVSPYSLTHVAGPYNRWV

Molecular target: mTET1 (Mus musculus, UniProt Q3URK3)
Conditions: cited from earlier work

For O=C(O)CC[C@H](O)C(=O)O [Molecule 29, L-2-hydroxyglutaric acid], the IC50 is given as 1000 µM.
